The text below walks through data of patent publication US20140296248A1, “METHODS AND COMPOSITIONS FOR PREDICTING RESISTANCE TO ANTICANCER TREATMENT” (Stichting het Nederlands Kanker Instiuut-Antoni van …, priority 2011, published 2014).

Molecules are shown by their SMILES.

In this experiment the test system is ERK signaling. Put plainly: ERK signaling in MED12-suppressed cancer cells in presence of drugs. Format: cell-based, human. Here is the method: The cells were fixed, stained and photographed after 10 (untreated) or 28 days (treated). […] The cells were fixed, stained and photographed after 14 (untreated) or 28 days (treated). […] G) Colony formation assay of Huh-7 cells expressing pLKO control or shMED12 vectors (#4 and #5) were cultured in 2 μM sorafenib. The cells were fixed, stained and photographed after 14 (untreated) or 21 days (treated). […] Huh-7 cells expressing pLKO control or shMED12 vectors were grown in the absence or presence of 4 μM sorafenib for 6 hours and the cell lysates were harvested for western blotting analysis.

For the compound `C[C@@H](Oc1cc(-c2cnn(C3CCNCC3)c2)cnc1N)c1c(Cl)ccc(F)c1Cl` [crizotinib], the “activation of ERK signaling by MED12 suppression in the presence of drug” value is “persists”.
